Measured values published in US9993462B2, “Hydantoin derivative-containing pharmaceutical composition” (Chugai Seiyaku Kabushiki Kaisha, priority 2014, dated 2018).

Tested on: rabbit articular chondrocytes
Assay: Suppression of terminal differentiation of rabbit articular chondrocytes (alkaline phosphatase and alizarin red staining)
Format: cell-based
Conditions: BMP-2 100 ng/mL, Compound 7 10^−7 to 10^−5 mol/L, PTH(1-34) 10^−10 to 10^−7 mol/L
Experimental: NZW rabbits (4-week old, Oriental Yeast Co., Ltd.) were euthanized, and then the articular cartilage of the lower leg bone was collected, and transferred to a 50-mL test tube (Nippon Becton Dickinson Company). PBS (Nacalai Tesque, Inc.) containing 1% trypsin (Wako Pure Chemical Industries, Ltd.) was added to this, and the soft tissue was digested at 37° C. for one hour. This was followed by centrifugation at 1,200 rpm for five minutes, then supernatant was removed and PBS(−) was added to suspend the cartilage tissue. This was centrifuged at 1,200 rpm for five minutes, followed by removal of the supernatant, and washed three times by suspending in PBS(−). This was centrifuged at 1,200 rpm for five minutes, and then the cell pellet was digested by treatment with DMEM (Life Technologies Japan, Ltd.) containing 0.2% Type II collagenase (CLS-2, Worthington Biochemical Corp.) at 37° C. for three hours. Fetal bovine serum (Life Technologies Japan, Ltd.) was added at 10% v/v to stop the reaction, and this was vigorously pipetted using a 10-mL pipette (Nippon Becton Dickinson Company) to isolate the chondrocytes. […]

BMP-2: Factor added at 100 ng/mL to chondrocyte culture; increased alkaline phosphatase activity and promoted calcification
alkaline phosphatase activity (alkaline phosphatase staining) (cultured for 14 days): increase alkaline phosphatase activity
alizarin red staining property (calcification) (cultured for 21 days): remarkably increased the alizarin red staining property
